Data on 1 compound can be found in patent US6369225B1, “Compounds having activity as inhibitors of cytochrome P450RAI” (Allergan Sales, Inc., priority 2000, dated 2002).

pIC50: −log10 of the molar value.

This assay addresses T1, P450RAI-1 (Homo sapiens, UniProt O43174).
T1 construct: expressed in transfected cells; host or cells: HeLa cells, stably transfected, hygromycin selection
T1 sequence (O43174 1-497): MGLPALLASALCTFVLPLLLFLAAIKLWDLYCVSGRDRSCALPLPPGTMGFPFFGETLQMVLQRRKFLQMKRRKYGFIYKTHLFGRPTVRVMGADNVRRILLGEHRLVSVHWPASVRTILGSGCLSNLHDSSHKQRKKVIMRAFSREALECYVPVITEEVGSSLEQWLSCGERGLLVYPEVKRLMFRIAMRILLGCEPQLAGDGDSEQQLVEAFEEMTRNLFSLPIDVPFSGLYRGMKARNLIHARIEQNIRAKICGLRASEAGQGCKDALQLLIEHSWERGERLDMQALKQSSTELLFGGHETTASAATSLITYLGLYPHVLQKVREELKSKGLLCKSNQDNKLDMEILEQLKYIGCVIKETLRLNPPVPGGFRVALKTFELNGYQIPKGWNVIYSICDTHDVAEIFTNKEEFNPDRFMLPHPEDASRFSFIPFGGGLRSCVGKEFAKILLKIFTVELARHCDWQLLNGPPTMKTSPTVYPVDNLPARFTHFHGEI
The assay is described as follows: P450RAI-1 cell-based inhibitor assay. The note with it: P450RAI-1 stably transfected HeLa cells, [3H]-RA metabolism, 3 hours at 37° C.; read-out: P450RAI INHIBITION DATA INTACT HELA IC50.

As to `CC(C)c1cc(C#Cc2ccc(CC(=O)O)cc2)ccc1Cn1ccnc1` [Compound 127, [4-(4-Imidazol-1-yl-methyl-3-isopropyl-phenylethynyl)-phenyl]-acetic Acid], the pIC50 was 6.40.
